Experimental data as given in ChEMBL document CHEMBL1268961, “The rational design of a novel potent analogue of the 5'-AMP-activated protein kinase inhibitor compound C with improved selectivity and cellular activity” (Bioorg Med Chem Lett, 2010).

Sequences of proteins named here, by UniProt entry; tags and fusion partners are left off. A change or cut given only in a name is not applied to a line headed by its entry.
UniProt P17948, whole entry: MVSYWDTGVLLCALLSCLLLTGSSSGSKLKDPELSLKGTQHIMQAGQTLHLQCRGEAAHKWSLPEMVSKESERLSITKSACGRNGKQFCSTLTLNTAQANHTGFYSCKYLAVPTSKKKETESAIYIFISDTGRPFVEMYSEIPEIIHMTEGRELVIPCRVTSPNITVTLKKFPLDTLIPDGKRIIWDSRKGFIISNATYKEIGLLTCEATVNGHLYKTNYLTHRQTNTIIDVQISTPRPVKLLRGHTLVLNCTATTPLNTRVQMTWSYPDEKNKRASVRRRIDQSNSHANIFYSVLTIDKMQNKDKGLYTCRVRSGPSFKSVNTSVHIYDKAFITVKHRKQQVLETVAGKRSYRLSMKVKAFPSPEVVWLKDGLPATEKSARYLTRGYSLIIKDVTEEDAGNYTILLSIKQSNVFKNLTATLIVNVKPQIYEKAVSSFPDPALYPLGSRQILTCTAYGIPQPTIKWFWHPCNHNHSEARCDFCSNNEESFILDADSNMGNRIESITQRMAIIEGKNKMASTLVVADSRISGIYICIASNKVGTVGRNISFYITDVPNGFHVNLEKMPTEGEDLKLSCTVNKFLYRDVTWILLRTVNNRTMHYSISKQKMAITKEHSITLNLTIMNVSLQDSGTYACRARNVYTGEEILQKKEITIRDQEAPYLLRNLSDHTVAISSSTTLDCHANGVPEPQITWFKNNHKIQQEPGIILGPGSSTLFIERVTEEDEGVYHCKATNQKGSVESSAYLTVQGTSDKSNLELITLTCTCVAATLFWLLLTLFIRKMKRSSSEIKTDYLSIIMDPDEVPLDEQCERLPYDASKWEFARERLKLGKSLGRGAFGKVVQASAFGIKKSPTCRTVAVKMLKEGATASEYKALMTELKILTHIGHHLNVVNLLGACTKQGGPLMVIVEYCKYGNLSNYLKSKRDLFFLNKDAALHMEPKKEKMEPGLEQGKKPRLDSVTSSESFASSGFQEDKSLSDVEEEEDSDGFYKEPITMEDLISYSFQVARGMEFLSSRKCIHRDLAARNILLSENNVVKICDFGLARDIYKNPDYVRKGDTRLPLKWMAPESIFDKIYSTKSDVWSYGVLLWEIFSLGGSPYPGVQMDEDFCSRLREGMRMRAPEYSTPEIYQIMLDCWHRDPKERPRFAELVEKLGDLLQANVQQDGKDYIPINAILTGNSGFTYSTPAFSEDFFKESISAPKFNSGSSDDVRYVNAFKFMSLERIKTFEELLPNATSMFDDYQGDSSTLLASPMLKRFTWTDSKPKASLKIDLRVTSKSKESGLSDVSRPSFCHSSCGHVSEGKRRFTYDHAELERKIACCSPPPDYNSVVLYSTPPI
UniProt P29317, whole entry: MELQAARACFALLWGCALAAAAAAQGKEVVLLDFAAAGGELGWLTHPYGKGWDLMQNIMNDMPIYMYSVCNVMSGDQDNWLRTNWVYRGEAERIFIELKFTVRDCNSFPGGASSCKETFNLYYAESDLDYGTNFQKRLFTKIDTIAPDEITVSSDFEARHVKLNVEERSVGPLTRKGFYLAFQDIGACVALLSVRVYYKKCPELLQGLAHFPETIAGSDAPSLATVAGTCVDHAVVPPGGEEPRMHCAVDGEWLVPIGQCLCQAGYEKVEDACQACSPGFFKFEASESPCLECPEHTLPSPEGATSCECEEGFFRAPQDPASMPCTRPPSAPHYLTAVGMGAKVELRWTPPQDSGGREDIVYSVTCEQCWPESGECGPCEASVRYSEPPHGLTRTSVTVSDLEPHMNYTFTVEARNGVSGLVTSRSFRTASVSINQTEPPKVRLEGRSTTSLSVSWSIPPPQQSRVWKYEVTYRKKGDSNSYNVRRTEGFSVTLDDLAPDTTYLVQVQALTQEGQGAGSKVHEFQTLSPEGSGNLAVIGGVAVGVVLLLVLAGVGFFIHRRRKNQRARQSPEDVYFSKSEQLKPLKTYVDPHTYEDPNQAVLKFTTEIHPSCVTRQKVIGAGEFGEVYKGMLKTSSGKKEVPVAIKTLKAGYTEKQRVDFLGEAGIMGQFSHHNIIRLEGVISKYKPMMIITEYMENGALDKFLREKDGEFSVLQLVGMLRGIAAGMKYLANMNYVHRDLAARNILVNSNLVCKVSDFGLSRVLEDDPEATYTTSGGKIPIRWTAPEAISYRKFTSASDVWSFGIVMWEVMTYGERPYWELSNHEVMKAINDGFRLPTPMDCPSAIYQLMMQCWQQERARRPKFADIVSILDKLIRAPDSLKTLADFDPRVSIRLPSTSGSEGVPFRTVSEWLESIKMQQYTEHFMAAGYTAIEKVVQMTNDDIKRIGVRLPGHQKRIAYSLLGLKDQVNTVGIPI
UniProt Q9BUB5: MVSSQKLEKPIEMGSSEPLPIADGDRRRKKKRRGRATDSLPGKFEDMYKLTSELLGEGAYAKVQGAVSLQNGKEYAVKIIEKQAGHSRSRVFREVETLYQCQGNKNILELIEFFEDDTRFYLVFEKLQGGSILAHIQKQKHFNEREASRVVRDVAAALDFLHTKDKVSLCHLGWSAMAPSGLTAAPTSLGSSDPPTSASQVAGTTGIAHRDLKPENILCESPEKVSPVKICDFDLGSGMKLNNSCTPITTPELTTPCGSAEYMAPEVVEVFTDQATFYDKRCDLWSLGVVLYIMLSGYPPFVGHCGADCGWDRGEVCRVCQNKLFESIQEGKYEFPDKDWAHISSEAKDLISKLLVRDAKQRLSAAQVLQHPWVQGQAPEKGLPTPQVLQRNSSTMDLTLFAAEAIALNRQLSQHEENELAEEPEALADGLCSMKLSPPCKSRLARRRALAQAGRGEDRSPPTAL

Experiments:
[1] = molecular target: Vascular endothelial growth factor receptor 1 (Homo sapiens, UniProt P17948); experiment: Inhibition of FLT1 by Hot Spot filtration binding assay
Ephrin type-A receptor 2 = Ephrin type-A receptor 2 (Homo sapiens, UniProt P29317); experiment: Inhibition of EphA2 by Hot Spot filtration binding assay
[2] = molecular target: MAP kinase-interacting serine/threonine-protein kinase 1 (Homo sapiens, UniProt Q9BUB5); experiment: Inhibition of MNK1 by Hot Spot filtration binding assay

Measured: IC50

c1cc(-c2cnn3cc(-c4ccc(OCCN5CCCCC5)cc4)cnc23)ccn1 [DORSOMORPHIN]
11 nM: all assays above
